In patent publication US20250263424A1, “KRAS INHIBITORS” (Bristol-Myers Squibb Company, priority 2022, published 2025) one finds IC50 data, which are given here for two molecules.

Amino acid sequences for entries named in this document (tags omitted). Residues count along the entry.
UniProt P01116, 1-188 isoform 2 G12C: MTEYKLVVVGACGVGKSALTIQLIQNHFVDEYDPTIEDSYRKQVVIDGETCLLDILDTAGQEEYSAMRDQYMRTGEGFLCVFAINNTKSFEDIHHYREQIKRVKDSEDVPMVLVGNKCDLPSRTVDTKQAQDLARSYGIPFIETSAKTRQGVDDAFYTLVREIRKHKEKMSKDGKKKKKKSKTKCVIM

SMILES strings stand for the structures.

This experiment has as its target Recombinant GMPPNP-loaded KRAS G12C (KRAS-G12C(ON), active form) (Homo sapiens, UniProt P01116, G12C). The experiment in a line: KRAS G12C RAF Disruption Assay (HTRF). The following applies: read-out: KRASG12C RAF Disruption Assay (IC50), GMPPNP-loaded KRAS G12C 5 nM, GST-RAF1 RBD 9 nM, values in nM. Here is the method: This is a functional assay that measures activity of compounds against KRAS-G12C^(ON), i.e., the active form of KRAS G12C. Recombinant GMPPNP-loaded KRAS G12C (5 nM) was treated with compound at room temperature for 20 minutes in assay buffer (50 mM Tris pH 7.5, 100 mM NaCl, 1 mM MgCl2, 1 mM DTT, 100 μg/ml BSA). Recombinant GST-RAF1 RBD (9 nM) was added, and the reaction mixture was incubated for 20 minutes. SA-Tb (0.25 nM) was added, and the reaction mixture was incubated for 3 hours. HTRF signal was measured (PerkinElmer Envision), the signal ratio (λem 520/λem 495) was calculated, and IC50 values were calculated from the dose-response curve.
A general note: Time-resolved FRET reads energy transfer from a long-lived donor to a nearby acceptor.

On to `CN1CCC[C@H]1COc1nc(N2CCN(C(=O)/C(F)=C/c3ccccn3)[C@@H](CC#N)C2)c2ccc(-c3c(O)cccc3F)c(F)c2n1`, for which the IC50 (usually the concentration that inhibits the measured activity by half) turned out to be 200 nM.

For the molecule `CN1CCC[C@H]1COc1nc(N2CCN(C(=O)/C(F)=C/c3ncccn3)[C@@H](CC#N)C2)c2ccc(-c3cc(O)cc4ccccc34)c(F)c2n1`, the IC50 was 10 nM.
